Reference: patent publication US20250340604A1, “BLOOD-BRAIN BARRIER TRANSLOCATING PEPTIDES AND RELATED MOLECULES AND METHODS OF USE THEREOF” (Enkefalos Biosciences, Inc., priority 2022, published 2025)

Conditions: monovalent trastuzumab knob-hole cyclotide fusions, 25 mg/kg, 24 hours, brain homogenate ELISA, versus trastuzumab alone; FIG. 9

## CYC17
  brain-specific delivery of trastuzumab (percents of injected dose per gram of brain): improved brain-specific delivery
